Drawing on US20110177074A1 (ZymoGenetics, published 2011), this text covers koff for one molecule.

By UniProt entry, the sequences of proteins in these tests, tags left out. Chains listed by the source or under a name are the forms on record and can include a tag or linker.
UniProt P15692, other isoform, or with tags, fused parts or gaps: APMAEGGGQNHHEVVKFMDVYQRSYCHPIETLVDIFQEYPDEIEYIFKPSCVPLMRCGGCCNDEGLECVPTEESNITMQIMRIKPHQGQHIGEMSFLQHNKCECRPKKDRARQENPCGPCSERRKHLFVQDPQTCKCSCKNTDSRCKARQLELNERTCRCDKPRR

Usually koff stands for a measure of how fast the partners let go of each other. Low readings indicate a long-lived complex, high ones a short-lived complex.

The experiment deals with T1, human VEGF-A165 (human, UniProt P15692 207-395).
T1 construct: R&D Systems; homodimer; also called recombinant human VEGF-A
The experiment is described as follows: SPR, VEGF-A immobilised, 1:1 dissociation fit. A general note: In SPR one partner is held on a chip, and binding of the other changes the refractive index at the surface.

B1: ranibizumab (anti-VEGFA affinity-matured Fab, Genentech) (Fab, V domains shown)
VH: not shown
VL: not shown
B1 returned a koff of 2e-05 s⁻¹.
